# Laboratory results reported in ChEMBL document CHEMBL5678810.
# Sequences of proteins named here, by UniProt entry; tags and fusion partners are left off. A change or cut given only in a name is not applied to a line headed by its entry.
# UniProt Q06418: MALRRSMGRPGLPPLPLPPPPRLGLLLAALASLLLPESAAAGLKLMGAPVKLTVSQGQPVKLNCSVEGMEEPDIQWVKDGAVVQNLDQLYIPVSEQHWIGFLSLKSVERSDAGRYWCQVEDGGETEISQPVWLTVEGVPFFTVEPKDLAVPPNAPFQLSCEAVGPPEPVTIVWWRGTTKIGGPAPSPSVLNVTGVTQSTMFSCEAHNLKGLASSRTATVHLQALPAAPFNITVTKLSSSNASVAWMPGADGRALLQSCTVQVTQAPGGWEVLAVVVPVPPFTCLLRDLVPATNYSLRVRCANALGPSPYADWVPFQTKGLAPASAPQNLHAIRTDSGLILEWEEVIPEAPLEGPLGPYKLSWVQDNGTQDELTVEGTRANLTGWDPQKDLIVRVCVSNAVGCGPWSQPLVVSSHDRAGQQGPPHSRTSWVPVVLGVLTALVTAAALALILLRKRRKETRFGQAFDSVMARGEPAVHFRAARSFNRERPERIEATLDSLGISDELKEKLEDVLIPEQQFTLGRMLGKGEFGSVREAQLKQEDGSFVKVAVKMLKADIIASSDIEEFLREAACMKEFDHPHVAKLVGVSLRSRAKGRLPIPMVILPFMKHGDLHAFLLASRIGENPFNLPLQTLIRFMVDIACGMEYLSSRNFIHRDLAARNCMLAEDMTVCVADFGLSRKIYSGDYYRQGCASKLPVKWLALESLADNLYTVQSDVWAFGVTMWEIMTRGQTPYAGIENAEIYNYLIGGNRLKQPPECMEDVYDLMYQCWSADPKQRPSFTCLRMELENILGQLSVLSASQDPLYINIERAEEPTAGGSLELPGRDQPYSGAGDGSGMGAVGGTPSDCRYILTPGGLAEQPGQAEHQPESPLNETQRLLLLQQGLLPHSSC
# UniProt Q9H2K8: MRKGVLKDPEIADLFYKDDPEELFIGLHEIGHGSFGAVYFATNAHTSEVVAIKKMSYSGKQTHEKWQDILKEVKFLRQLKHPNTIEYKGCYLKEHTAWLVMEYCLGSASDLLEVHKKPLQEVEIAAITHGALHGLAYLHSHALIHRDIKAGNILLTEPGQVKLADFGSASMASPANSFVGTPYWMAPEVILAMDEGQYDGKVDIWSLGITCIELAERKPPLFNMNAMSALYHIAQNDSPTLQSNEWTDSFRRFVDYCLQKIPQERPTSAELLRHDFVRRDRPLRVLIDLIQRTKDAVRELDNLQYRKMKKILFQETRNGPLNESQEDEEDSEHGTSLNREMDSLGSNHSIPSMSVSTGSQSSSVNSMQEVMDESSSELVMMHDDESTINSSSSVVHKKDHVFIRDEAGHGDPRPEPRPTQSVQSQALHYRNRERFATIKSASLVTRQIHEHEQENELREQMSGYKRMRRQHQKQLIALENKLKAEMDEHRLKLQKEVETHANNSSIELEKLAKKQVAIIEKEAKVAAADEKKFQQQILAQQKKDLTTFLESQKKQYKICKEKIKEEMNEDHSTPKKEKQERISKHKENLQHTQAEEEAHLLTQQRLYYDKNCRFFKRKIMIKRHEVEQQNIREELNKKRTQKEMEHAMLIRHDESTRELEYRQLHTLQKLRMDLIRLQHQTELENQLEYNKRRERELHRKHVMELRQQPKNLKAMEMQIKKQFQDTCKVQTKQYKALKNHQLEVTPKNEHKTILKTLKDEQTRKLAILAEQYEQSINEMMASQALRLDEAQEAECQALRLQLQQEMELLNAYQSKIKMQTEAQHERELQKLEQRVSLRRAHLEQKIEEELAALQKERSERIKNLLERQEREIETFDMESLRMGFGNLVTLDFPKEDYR
# UniProt Q9UL54: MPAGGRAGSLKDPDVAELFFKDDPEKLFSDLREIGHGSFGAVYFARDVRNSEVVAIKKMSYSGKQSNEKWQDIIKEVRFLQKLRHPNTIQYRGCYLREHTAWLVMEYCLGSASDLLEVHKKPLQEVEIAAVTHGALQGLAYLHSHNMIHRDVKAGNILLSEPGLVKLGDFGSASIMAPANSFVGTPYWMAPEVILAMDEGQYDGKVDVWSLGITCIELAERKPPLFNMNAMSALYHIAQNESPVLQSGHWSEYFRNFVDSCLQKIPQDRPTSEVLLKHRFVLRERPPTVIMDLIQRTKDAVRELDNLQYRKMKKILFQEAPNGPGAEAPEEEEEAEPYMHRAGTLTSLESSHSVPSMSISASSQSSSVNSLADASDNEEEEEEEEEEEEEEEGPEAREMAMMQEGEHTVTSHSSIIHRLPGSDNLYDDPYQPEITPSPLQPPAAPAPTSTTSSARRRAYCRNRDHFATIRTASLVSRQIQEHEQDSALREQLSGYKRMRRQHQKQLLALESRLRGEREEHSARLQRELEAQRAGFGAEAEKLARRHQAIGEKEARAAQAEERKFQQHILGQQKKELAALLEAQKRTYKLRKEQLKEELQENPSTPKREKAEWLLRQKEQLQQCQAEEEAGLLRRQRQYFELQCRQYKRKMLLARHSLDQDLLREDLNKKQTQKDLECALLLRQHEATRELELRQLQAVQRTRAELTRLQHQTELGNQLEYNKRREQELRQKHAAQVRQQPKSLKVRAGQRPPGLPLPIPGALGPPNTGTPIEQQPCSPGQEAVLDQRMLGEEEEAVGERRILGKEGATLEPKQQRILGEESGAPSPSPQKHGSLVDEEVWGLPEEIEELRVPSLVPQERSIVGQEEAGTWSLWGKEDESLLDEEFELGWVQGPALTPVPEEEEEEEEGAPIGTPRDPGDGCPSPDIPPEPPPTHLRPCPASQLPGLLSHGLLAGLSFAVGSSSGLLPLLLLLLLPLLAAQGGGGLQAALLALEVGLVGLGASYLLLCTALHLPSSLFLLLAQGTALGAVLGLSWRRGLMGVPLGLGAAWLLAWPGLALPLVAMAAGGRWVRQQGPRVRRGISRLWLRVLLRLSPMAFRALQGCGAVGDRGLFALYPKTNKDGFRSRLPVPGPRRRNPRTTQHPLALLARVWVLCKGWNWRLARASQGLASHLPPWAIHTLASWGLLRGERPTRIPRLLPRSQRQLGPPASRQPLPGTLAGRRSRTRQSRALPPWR
# UniProt Q9BYT3: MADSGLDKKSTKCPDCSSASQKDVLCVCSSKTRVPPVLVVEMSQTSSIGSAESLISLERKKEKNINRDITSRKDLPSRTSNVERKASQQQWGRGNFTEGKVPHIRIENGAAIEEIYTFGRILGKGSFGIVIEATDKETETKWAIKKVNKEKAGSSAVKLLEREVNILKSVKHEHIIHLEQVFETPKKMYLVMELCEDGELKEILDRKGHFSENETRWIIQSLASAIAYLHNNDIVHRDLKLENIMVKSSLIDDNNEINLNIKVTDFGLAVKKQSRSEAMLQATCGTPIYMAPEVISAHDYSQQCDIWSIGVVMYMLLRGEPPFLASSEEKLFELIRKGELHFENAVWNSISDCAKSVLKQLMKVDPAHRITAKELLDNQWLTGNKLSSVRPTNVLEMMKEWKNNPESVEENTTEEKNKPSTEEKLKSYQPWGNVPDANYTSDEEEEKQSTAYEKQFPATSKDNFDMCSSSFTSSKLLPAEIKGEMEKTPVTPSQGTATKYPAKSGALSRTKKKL
# UniProt Q9NY57, whole entry: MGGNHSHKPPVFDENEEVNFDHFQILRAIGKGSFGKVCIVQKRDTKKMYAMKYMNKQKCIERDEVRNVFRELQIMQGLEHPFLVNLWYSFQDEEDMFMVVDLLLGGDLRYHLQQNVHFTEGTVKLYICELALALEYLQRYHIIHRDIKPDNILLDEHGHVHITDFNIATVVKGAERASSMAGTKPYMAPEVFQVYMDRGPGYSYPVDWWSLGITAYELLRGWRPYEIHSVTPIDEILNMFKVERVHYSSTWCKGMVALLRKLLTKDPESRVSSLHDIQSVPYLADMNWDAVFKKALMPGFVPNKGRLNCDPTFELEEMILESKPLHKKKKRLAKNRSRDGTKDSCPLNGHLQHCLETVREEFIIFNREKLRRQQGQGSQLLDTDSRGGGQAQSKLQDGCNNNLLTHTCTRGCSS
# UniProt Q9UK32, whole entry: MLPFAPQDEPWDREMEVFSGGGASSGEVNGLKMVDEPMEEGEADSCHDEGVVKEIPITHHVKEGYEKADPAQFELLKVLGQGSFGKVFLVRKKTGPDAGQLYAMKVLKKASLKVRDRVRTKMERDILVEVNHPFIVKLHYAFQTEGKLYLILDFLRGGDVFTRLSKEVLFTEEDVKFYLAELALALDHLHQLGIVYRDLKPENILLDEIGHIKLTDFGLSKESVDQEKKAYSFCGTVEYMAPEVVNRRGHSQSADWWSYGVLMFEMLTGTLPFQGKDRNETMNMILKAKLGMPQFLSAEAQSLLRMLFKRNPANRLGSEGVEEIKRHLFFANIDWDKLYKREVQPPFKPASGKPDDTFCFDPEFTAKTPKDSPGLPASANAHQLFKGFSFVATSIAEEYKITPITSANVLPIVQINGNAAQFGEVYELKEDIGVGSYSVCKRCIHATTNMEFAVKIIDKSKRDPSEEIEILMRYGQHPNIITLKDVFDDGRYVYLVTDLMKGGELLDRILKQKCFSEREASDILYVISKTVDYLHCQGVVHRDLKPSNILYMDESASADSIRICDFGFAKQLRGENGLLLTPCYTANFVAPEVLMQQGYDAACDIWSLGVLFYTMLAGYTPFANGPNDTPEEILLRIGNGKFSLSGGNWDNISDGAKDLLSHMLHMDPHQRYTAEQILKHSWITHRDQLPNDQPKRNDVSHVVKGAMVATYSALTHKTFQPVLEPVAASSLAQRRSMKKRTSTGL
# UniProt Q15349, whole entry: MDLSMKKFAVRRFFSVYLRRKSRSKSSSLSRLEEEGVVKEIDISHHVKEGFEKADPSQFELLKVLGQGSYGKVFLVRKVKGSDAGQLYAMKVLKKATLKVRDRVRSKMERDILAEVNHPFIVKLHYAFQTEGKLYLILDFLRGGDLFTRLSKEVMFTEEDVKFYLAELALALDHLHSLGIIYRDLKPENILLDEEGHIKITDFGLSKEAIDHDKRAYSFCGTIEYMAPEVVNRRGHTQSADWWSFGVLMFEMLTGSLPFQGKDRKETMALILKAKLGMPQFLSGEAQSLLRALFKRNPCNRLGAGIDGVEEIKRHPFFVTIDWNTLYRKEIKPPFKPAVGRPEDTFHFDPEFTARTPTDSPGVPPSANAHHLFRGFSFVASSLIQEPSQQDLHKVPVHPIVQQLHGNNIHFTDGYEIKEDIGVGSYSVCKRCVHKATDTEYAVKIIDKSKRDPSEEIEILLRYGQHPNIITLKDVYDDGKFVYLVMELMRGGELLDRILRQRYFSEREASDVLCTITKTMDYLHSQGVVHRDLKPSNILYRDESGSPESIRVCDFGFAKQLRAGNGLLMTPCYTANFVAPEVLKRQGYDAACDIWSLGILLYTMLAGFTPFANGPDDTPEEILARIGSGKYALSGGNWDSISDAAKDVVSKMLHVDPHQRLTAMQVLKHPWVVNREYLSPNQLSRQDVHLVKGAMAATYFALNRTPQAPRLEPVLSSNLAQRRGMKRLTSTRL
# UniProt P0C1S8: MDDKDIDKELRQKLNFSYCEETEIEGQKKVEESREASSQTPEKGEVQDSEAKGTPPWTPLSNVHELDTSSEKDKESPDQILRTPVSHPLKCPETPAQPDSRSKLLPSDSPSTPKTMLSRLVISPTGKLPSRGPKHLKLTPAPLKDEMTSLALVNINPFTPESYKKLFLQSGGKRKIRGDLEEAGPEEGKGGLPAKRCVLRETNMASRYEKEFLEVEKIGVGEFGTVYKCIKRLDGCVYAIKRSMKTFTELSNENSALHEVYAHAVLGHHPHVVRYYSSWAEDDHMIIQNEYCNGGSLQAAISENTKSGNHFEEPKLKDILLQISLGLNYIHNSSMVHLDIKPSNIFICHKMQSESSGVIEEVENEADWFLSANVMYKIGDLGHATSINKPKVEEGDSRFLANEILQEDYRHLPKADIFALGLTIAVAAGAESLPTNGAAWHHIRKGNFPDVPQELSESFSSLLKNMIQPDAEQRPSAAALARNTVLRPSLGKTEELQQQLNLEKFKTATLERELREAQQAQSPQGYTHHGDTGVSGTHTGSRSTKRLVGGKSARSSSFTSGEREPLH
# UniProt P07947, whole entry, looked up: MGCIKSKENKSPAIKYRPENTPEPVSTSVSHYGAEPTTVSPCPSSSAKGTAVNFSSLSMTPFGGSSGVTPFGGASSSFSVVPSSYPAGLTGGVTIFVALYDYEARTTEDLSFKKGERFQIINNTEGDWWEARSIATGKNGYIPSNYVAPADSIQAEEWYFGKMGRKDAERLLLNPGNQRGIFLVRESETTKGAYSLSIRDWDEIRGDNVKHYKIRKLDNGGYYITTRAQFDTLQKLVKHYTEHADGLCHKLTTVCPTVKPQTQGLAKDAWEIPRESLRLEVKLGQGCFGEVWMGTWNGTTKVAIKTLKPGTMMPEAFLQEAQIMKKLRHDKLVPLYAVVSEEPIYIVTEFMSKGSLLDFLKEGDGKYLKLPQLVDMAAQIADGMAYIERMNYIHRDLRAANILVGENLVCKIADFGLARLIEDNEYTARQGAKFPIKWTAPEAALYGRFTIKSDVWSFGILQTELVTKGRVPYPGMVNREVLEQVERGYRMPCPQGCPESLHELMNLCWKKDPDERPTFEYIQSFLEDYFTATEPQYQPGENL
# Columns and labels:
# [1] = biological target: Transient receptor potential cation channel subfamily M member 6 (Homo sapiens) (UniProt Q9BX84); test: Inhibition of T7 bacteriophage fused human TRPM6 at 10 uM by KINOMEscan analysis relative to control
# [2] = biological target: Serine/threonine-protein kinase Sgk3 (Homo sapiens) (UniProt Q96BR1); test: Inhibition of T7 bacteriophage fused human SGK3 at 10 uM by KINOMEscan analysis relative to control
# [3] = biological target: Tyrosine-protein kinase receptor TYRO3 (Homo sapiens) (UniProt Q06418); test: Inhibition of T7 bacteriophage fused human TYRO3 at 10 uM by KINOMEscan analysis relative to control
# [4] = biological target: Ribosomal protein S6 kinase beta-1 (Homo sapiens) (UniProt P23443); test: Inhibition of T7 bacteriophage fused human S6K1 at 10 uM by KINOMEscan analysis relative to control
# [5] = system: Leucine-rich repeat serine/threonine-protein kinase 2 (Homo sapiens), Q5S007 [A2016T]; test: Inhibition of drug-resistant GFP-tagged LRRK2 A2016T mutant phosphorylation at Ser935 residue (unknown origin) transfected in HEK293 cells upto 3 uM incubated for 90 mins by immunoblot analysis; type: cell-based
# Summary of the method: (§1)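 HEK293 cells stably expressing GFP-LRRK2 variants, grown in DMEM with 10% FBS, 2 mM glutamine and penicillin/streptomycin. Compound added from DMSO stock (final DMSO ≤1%) at increasing concentrations for 90 min, DMSO control. Cells were PBS-washed and lysed in Triton X-100 lysis buffer. Lysates were run on 8% SDS-PAGE and immunoblotted with rabbit monoclonals against pSer910, pSer935 and total LRRK2.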
# [6] = biological target: Serine/threonine-protein kinase TAO3 (Homo sapiens) (UniProt Q9H2K8); test: Inhibition of T7 bacteriophage fused human TAOK3 at 10 uM by KINOMEscan analysis relative to control
# [7] = biological target: Tyrosine-protein kinase ZAP-70 (Homo sapiens) (UniProt P43403); test: Inhibition of T7 bacteriophage fused human ZAP70 at 10 uM by KINOMEscan analysis relative to control
# [8] = biological target: SNF-related serine/threonine-protein kinase (Homo sapiens) (UniProt Q9NRH2); test: Inhibition of T7 bacteriophage fused human SNRK at 10 uM by KINOMEscan analysis relative to control
# [9] = biological target: Serine/threonine-protein kinase TAO2 (Homo sapiens) (UniProt Q9UL54); test: Inhibition of T7 bacteriophage fused human TAOK2 at 10 uM by KINOMEscan analysis relative to control
# [10] = biological target: Serine/threonine-protein kinase 33 (Homo sapiens) (UniProt Q9BYT3); test: Inhibition of T7 bacteriophage fused human STK33 at 10 uM by KINOMEscan analysis relative to control
# [11] = biological target: NT-3 growth factor receptor (Homo sapiens) (UniProt Q16288); test: Inhibition of T7 bacteriophage fused human TRKC at 10 uM by KINOMEscan analysis relative to control
# [12] = biological target: Serine/threonine-protein kinase 32B (Homo sapiens) (UniProt Q9NY57); test: Inhibition of T7 bacteriophage fused human YANK2 at 10 uM by KINOMEscan analysis relative to control
# [13] = biological target: Protein odd-skipped-related 1 (Homo sapiens) (UniProt Q8TAX0); test: Inhibition of T7 bacteriophage fused human OSR1 at 10 uM by KINOMEscan analysis relative to control
# [14] = biological target: Serine/threonine-protein kinase 35 (Homo sapiens) (UniProt Q8TDR2); test: Inhibition of T7 bacteriophage fused human STK35 at 10 uM by KINOMEscan analysis relative to control
# [15] = biological target: Ribosomal protein S6 kinase alpha-6 (Homo sapiens) (UniProt Q9UK32); test: Inhibition of T7 bacteriophage fused human N-terminal RSK4 Kinase domain-1 at 10 uM by KINOMEscan analysis relative to control
# [16] = biological target: TGF-beta receptor type-1 (Homo sapiens) (UniProt P36897); test: Inhibition of T7 bacteriophage fused human TGFBR1 at 10 uM by KINOMEscan analysis relative to control
# [17] = biological target: Serine/threonine-protein kinase 32A (Homo sapiens) (UniProt Q8WU08); test: Inhibition of T7 bacteriophage fused human YANK1 at 10 uM by KINOMEscan analysis relative to control
# [18] = system: Leucine-rich repeat serine/threonine-protein kinase 2 (Homo sapiens), Q5S007 [A2016T]; test: Inhibition of drug-resistant GFP-tagged LRRK2 A2016T mutant phosphorylation at Ser910 residue (unknown origin) transfected in HEK293 cells upto 3 uM incubated for 90 mins by immunoblot analysis; type: cell-based; summary of the method: as §1
# [19] = biological target: Non-receptor tyrosine-protein kinase TNK1 (Homo sapiens) (UniProt Q13470); test: Inhibition of T7 bacteriophage fused human TNK1 at 10 uM by KINOMEscan analysis relative to control
# [20] = biological target: STE20/SPS1-related proline-alanine-rich protein kinase (Homo sapiens) (UniProt Q9UEW8); test: Inhibition of T7 bacteriophage fused human STK39 at 10 uM by KINOMEscan analysis relative to control
# [21] = biological target: Ribosomal protein S6 kinase alpha-2 (Homo sapiens) (UniProt Q15349); test: Inhibition of T7 bacteriophage fused human N-terminal RSK3 Kinase domain-1 at 10 uM by KINOMEscan analysis relative to control
# [22] = biological target: Mitogen-activated protein kinase kinase kinase 7 (Homo sapiens) (UniProt O43318); test: Inhibition of T7 bacteriophage fused human TAK1 at 10 uM by KINOMEscan analysis relative to control
# [23] = biological target: Serine/threonine-protein kinase ULK1 (Homo sapiens) (UniProt O75385); test: Inhibition of T7 bacteriophage fused human ULK1 at 10 uM by KINOMEscan analysis relative to control
# [24] = biological target: Vascular endothelial growth factor receptor 2 (Homo sapiens) (UniProt P35968); test: Inhibition of T7 bacteriophage fused human VEGFR2 at 10 uM by KINOMEscan analysis relative to control
# [25] = biological target: Tyrosine-protein kinase Srms (Homo sapiens) (UniProt Q9H3Y6); test: Inhibition of T7 bacteriophage fused human SRMS at 10 uM by KINOMEscan analysis relative to control
# [26] = biological target: TGF-beta receptor type-2 (Homo sapiens) (UniProt P37173); test: Inhibition of T7 bacteriophage fused human TGFBR2 at 10 uM by KINOMEscan analysis relative to control
# [27] = biological target: Wee1-like protein kinase 2 (Homo sapiens) (UniProt P0C1S8); test: Inhibition of T7 bacteriophage fused human WEE2 at 10 uM by KINOMEscan analysis relative to control
# [28] = biological target: Non-receptor tyrosine-protein kinase TYK2 (Homo sapiens) (UniProt P29597); test: Inhibition of T7 bacteriophage fused human TYK2 JH2 pseudokinase domain at 10 uM by KINOMEscan analysis relative to control
# [29] = biological target: Serine/threonine-protein kinase VRK2 (Homo sapiens) (UniProt Q86Y07); test: Inhibition of T7 bacteriophage fused human VRK2 at 10 uM by KINOMEscan analysis relative to control
# [30] = biological target: Serine/threonine-protein kinase ULK3 (Homo sapiens) (UniProt Q6PHR2); test: Inhibition of T7 bacteriophage fused human ULK3 at 10 uM by KINOMEscan analysis relative to control
# [31] = biological target: Serine/threonine-protein kinase 32C (Homo sapiens) (UniProt Q86UX6); test: Inhibition of T7 bacteriophage fused human YANK3 at 10 uM by KINOMEscan analysis relative to control
# [32] = biological target: Tyrosine-protein kinase Yes (Homo sapiens) (UniProt P07947); test: Inhibition of T7 bacteriophage fused human YES at 10 uM by KINOMEscan analysis relative to control
structure (smiles),measurement,setting,value
COc1cc(C(=O)N2CCC(N3CCN(C)CC3)CC2)ccc1Nc1ncc2c(n1)N1CCc3cccc(c31)C(=O)N2C,inhibition,[1],100%
same,inhibition,[2],100%
same,inhibition,[3],100%
same,inhibition,[4],100%
same,inhibition,[5],inactive
same,inhibition,[6],100%
same,inhibition,[7],100%
same,inhibition,[8],100%
same,inhibition,[9],100%
same,inhibition,[10],2.4%
same,inhibition,[11],100%
same,inhibition,[12],100%
same,inhibition,[13],100%
same,inhibition,[14],100%
same,inhibition,[15],100%
same,inhibition,[16],100%
same,inhibition,[17],100%
same,inhibition,[18],inactive
same,inhibition,[19],5%
same,inhibition,[20],100%
same,inhibition,[21],100%
same,inhibition,[22],100%
same,inhibition,[23],100%
same,inhibition,[24],100%
same,inhibition,[25],100%
same,inhibition,[26],100%
same,inhibition,[27],100%
same,inhibition,[28],100%
same,inhibition,[29],100%
same,inhibition,[30],100%
same,inhibition,[31],100%
same,inhibition,[32],100%

# Activity calls are given as the source filed them. No cut-off for these calls is given here.
